We go through five molecules from patent publication US6953793B2 (priority 2000, dated 2005).

Protein sequences, listed by entry. Tags and fused reporters are not part of them. Residues count along the entry.
UniProt P25774, 115-331: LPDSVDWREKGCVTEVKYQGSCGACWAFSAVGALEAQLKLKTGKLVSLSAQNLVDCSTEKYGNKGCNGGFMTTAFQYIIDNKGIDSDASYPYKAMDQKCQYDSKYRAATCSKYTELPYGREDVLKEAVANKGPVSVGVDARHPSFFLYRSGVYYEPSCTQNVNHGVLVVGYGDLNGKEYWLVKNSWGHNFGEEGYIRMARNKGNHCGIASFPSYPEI

The assay addresses T1, Recombinant human cathepsin S (CatS) (Homo sapiens, UniProt P25774).
T1 construct: made in house; host or cells: baculovirus system (insect cells)
The experiment in a line: biochemical.
In the case of `CC(=O)N1CCc2c(c(-c3ccc(C(F)(F)F)cc3)nn2CC(O)CN2CCC(Oc3nc4ccccc4s3)CC2)C1` (centres unmarked) [Example 400, 1-[1-{3-[4-(Benzothiazol-2-yloxy)-piperidin-1-yl]-2-hydroxy-propyl}-3-(4-trifluoromethyl-phenyl)-1,4,6,7-tetrahydro-pyrazolo[4,3-c]pyridin-5-yl]-ethanone], the IC50 (usually the concentration that gives 50% inhibition) turned out to be 550 nM.

For `CC(=O)N1CCc2c(c(-c3ccc(Cl)cc3)nn2CC(O)CN2CCC(Nc3ccc(C#N)cc3)CC2)C1` (centres unmarked) [Example 221, 4-(1-{3-[5-Acetyl-3-(4-chloro-phenyl)-4,5,6,7-tetrahydro-pyrazolo[4,3-c]pyridin-1-yl]-2-hydroxy-propyl}-piperidin-4-ylamino)-benzonitrile], the IC50 was found to be 1400 nM.

Take `CC(=O)N1CCc2c(c(-c3ccc(Cl)c(C)c3)nn2CC(O)CN2CCC(n3c(=O)n(CC#N)c4ccccc43)CC2)C1` (centres unmarked) [Example 307, [3-(1-{3-[5-Acetyl-3-(4-chloro-3-methyl-phenyl)-4,5,6,7-tetrahydro-pyrazolo[4,3-c]pyridin-1-yl]-2-hydroxy-propyl}-piperidin-4-yl)-2-oxo-2,3-dihydro-benzoimidazol-1-yl]acetonitrile]: the IC50 was 90 nM.

With `CN(C)c1ccc2c(n1)n(C1CCN(CCCn3nc(-c4ccc(C(F)(F)F)cc4)c4c3CCN(S(C)(=O)=O)C4)CC1)c(=O)n2C` [Example 339, 5-Dimethylamino-3-(1-{3-[5-methanesulfonyl-3-(4-trifluoromethyl-phenyl)-4,5,6,7-tetrahydro-pyrazolo[4,3-c]pyridin-1-yl]-propyl}-piperidin-4-yl)-1-methyl-1,3-dihydro-imidazo[4,5-b]pyridin-2-one], the IC50 amounted to 200 nM.

For the molecule `CC(=O)N1CCc2c(c(-c3ccc(C(F)(F)F)cc3)nn2CC(O)CN2CCC(n3c(=O)n(CCO)c4ccccc43)CC2)C1` (centres unmarked) [Example 313, 1-(1-{3-[5-Acetyl-3-(4-trifluoromethyl-phenyl)-4,5,6,7-tetrahydro-pyrazolo[4,3-c]pyridin-1-yl]-2-hydroxy-propyl}-piperidin-4-yl)-3-(2-hydroxy-ethyl)-1,3-dihydro-benzoimidazol-2-one], the IC50 came to 230 nM.
